A short description of assay [1]: ACEA_ER_80hr: ACEA Biosciences xCELLigence Real-Time Cell Analysis on Estrogen Receptor Agonism for Proliferation (AID 2282667; active means hit-call score of the fitted dose curve at least 0.9, where 1 is the maximum). As to conditions: T47D proliferation, impedance (xCELLigence), 80 h. In short, it runs like this:
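T-47D cells monitored by electrical impedance (xCELLigence) with compound present throughout; 80 h timepoint, positive-direction fitting versus DMSO. Eight-point 1:4 dilutions from 100 uM final, duplicate plates.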

Assay [2] can be described thus: APR_HepG2_CellCycleArrest_1hr: Apredica 1-hour HepG2 Assay for Cell Cycle Arrest (AID 2282666). As to conditions: high-content imaging, actives raise or lower the signal. The procedure:
APR_HepG2_1hr is a cell-based, multiplexed-readout assay that uses HepG2, a human liver cell line, with measurements taken at 1 hour after chemical dosing in a 384-well plate.APR_HepG2_CellCycleArrest_1hr is one of 10 assay component(s) measured or calculated from the APR_HepG2_1hr assay. It is designed to make measurements of cell phenotype, a form of morphology reporter, as detected with fluorescence intensity signals by HCS Fluorescent Imaging technology.Data from the assay component APR_HepG2_CellCycleArrest_1hr was analyzed into 1 assay endpoint. This assay endpoint, APR_HepG2_CellCycleArrest_1hr, was analyzed with bidirectional fitting relative to DMSO as the negative control and baseline of activity. Using a type of morphology reporter, measures of all nuclear dna for gain or loss-of-signal activity can be used to understand the signaling at the pathway-level as they relate to the gene . Furthermore, this assay endpoint can be referred to as a primary readout, because this assay has produced multiple assay endpoints where this one serves a signaling function. To generalize the intended target to other relatable targets, this assay endpoint is annotated to the cell cycle intended target family, where the subfamily is arrest. […]

Assay [3] can be described thus: APR_HepG2_CellLoss_1hr: Apredica 1-hour HepG2 Assay for Cell Loss (AID 2282668).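 Further: curves fitted both ways against DMSO so gain or loss of cells counts.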 As to conditions: high-content imaging. The method, then:
APR_HepG2_1hr is a cell-based, multiplexed-readout assay that uses HepG2, a human liver cell line, with measurements taken at 1 hour after chemical dosing in a 384-well plate.APR_HepG2_CellLoss_1hr is one of 10 assay component(s) measured or calculated from the APR_HepG2_1hr assay. It is designed to make measurements of cell number, a form of viability reporter, as detected with fluorescence intensity signals by HCS Fluorescent Imaging technology.Data from the assay component APR_HepG2_CellLoss_1hr was analyzed into 1 assay endpoint. This assay endpoint, APR_HepG2_CellLoss_1hr, was analyzed with bidirectional fitting relative to DMSO as the negative control and baseline of activity. Using a type of viability reporter, measures of all nuclear dna for gain or loss-of-signal activity can be used to understand the viability at the cellular-level. Furthermore, this assay endpoint can be referred to as a secondary readout, because this assay has produced multiple assay endpoints where this one serves a viability function. To generalize the intended target to other relatable targets, this assay endpoint is annotated to the cell cycle intended target family, where the subfamily is proliferation.
Cells were treated with dimethyl sulfoxide (DMSO) as a solvent control at a final concentration of 0.5% v/v or with compounds in DMSO with a resulting final DMSO concentration of 0.5% v/v. […]

A short description of assay [4]: APR_HepG2_MicrotubuleCSK_1hr: Apredica 1-hour HepG2 Assay for Microtubule CSK Stabilty (AID 2282669). As to conditions: HepG2 microtubule cytoskeleton imaging, actives raise or lower the signal. The procedure, abridged: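 HepG2 cells exposed 1 h to 0.39–200 uM compound (0.5% DMSO, duplicates), then formaldehyde-fixed, permeabilized and immunostained for alpha-tubulin with Hoechst nuclei. Imaged by ArrayScan high-content analysis; bidirectional fit versus DMSO.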

A short description of assay [5]: APR_HepG2_NuclearSize_1hr: Apredica 1-hour HepG2 Assay for Nuclear Size (AID 2282670). As to conditions: high-content imaging, actives raise or lower the signal. The procedure, abridged: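 HepG2 cells dosed 1 hr with 0.39–200 uM compound (0.5% DMSO), formaldehyde-fixed, Hoechst 33342-stained and imaged at 20x; nuclear diameter from nuclear stain, fitted bidirectionally against DMSO.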

Assay [6] in a line: APR_HepG2_MitoticArrest_1hr: Apredica 1-hour HepG2 Assay for Mitotic Arrest (AID 2282672). As to conditions: high-content imaging, actives raise or lower the signal. In short, it runs like this: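 HepG2 cells exposed 1 hr to compounds at 0.39–200 uM (0.5% v/v DMSO final), then fixed in 3.7% formaldehyde and immunostained for phospho-histone H3 with Hoechst 33342. Mitotic arrest scored by automated fluorescence imaging, fitted bidirectionally versus DMSO.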

A short description of assay [7]: APR_HepG2_P-H2AX_1hr: Apredica 1-hour HepG2 Assay for H2AX Phosphorylation (AID 2282673). As to conditions: high-content imaging, actives raise or lower the signal. The procedure:
(§1) APR_HepG2_1hr is a cell-based, multiplexed-readout assay that uses HepG2, a human liver cell line, with measurements taken at 1 hour after chemical dosing in a 384-well plate.APR_HepG2_P-H2AX_1hr is one of 10 assay component(s) measured or calculated from the APR_HepG2_1hr assay. It is designed to make measurements of dna content, a form of viability reporter, as detected with fluorescence intensity signals by HCS Fluorescent Imaging technology.Data from the assay component APR_HepG2_P-H2AX_1hr was analyzed into 1 assay endpoint. This assay endpoint, APR_HepG2_P-H2AX_1hr, was analyzed with bidirectional fitting relative to DMSO as the negative control and baseline of activity. Using a type of viability reporter, measures of protein for gain or loss-of-signal activity can be used to understand the signaling at the pathway-level as they relate to the gene . Furthermore, this assay endpoint can be referred to as a primary readout, because this assay has produced multiple assay endpoints where this one serves a signaling function. To generalize the intended target to other relatable targets, this assay endpoint is annotated to the dna binding intended target family, where the subfamily is cellular response to DNA damage stimulus. […]

Assay [8] in a line: APR_HepG2_MitoMass_1hr: Apredica 1-hour HepG2 Assay for Mitochondrial Mass (AID 2282674). As to conditions: high-content imaging, actives raise or lower the signal. The procedure, abridged:
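HepG2 cells dosed 1 hr with 0.39-200 uM compound (0.5% DMSO), duplicate wells. Mitochondria stained with 250 nM MitoTracker Red CMXRos for 30 min before formaldehyde fixation, imaged at 20x by ArrayScan; bidirectional fit versus DMSO.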

A short description of assay [9]: APR_HepG2_MitoMembPot_1hr: Apredica 1-hour HepG2 Assay for Mitochondrial Membrane Potential (AID 2282675). As to conditions: imaging, actives raise or lower the signal. The method, then: APR_HepG2_1hr is a cell-based, multiplexed-readout assay that uses HepG2, a human liver cell line, with measurements taken at 1 hour after chemical dosing in a 384-well plate.APR_HepG2_MitoMembPot_1hr is one of 10 assay component(s) measured or calculated from the APR_HepG2_1hr assay. It is designed to make measurements of dye binding, a form of membrane potential reporter, as detected with fluorescence intensity signals by HCS Fluorescent Imaging technology.Data from the assay component APR_HepG2_MitoMembPot_1hr was analyzed into 1 assay endpoint. This assay endpoint, APR_HepG2_MitoMembPot_1hr, was analyzed with bidirectional fitting relative to DMSO as the negative control and baseline of activity. Using a type of membrane potential reporter, gain or loss-of-signal activity can be used to understand changes in the signaling. Furthermore, this assay endpoint can be referred to as a primary readout, because this assay has produced multiple assay endpoints where this one serves a signaling function. To generalize the intended target to other relatable targets, this assay endpoint is annotated to the cell morphology intended target family, where the subfamily is organelle conformation.
Cells were treated with dimethyl sulfoxide (DMSO) as a solvent control at a final concentration of 0.5% v/v or with compounds in DMSO with a resulting final DMSO concentration of 0.5% v/v. Compound treatment was done at concentrations of 0.39, 0.78, 1.56, 3.12, 6.24, 12.5, 25, 50, 100, and 200 uM in duplicate on each plate. Cells were treated with compounds for 1, 24, or 72 hr. Carbonyl […] m-chloro-phenylhydrazone (CCCP) and taxol were used as positive controls for mitochondrial function and cytoskeletal stability, respectively; DMSO served as the negative control for this experiment. Cells were fixed by the direct addition of 50 uL formaldehyde in Hank's Balanced Salt Solution (HBSS) to a final concentration of 3.7%. […]

Assay [10] in a line: APR_HepG2_p53Act_1hr: Apredica 1-hour HepG2 Assay for p53 Activation (AID 2282671). As to conditions: high-content imaging, actives raise or lower the signal. The procedure:
as §1, with “384-well plate.APR_HepG2_p53Act_1hr” for “384-well plate.APR_HepG2_P-H2AX_1hr”, “component APR_HepG2_p53Act_1hr” for “component APR_HepG2_P-H2AX_1hr”, “endpoint, APR_HepG2_p53Act_1hr,” for “endpoint, APR_HepG2_P-H2AX_1hr,”, “gene TP53.” for “gene .”, “is tumor suppressor.” for “is cellular response to DNA damage stimulus.”

Where “and” joins values, the source holds several entries; their conditions need not be identical. Identical values can stand only once. Only a part is listed here, and it is no random draw. Results filed as inconclusive are left out. More than one record can exist for a structure, and the calls need not agree. Calls of active or inactive are those of the source. How the source made its calls, unless noted: active means hit-call score of the fitted dose curve at least 0.9, where 1 is the maximum; inactive means score below 0.9.

By AC50 is commonly meant the concentration giving half of the maximal activity seen.

Take `CCCCOP(OCCCC)OCCCC`: in [1], the call was inactive.
Regarding `CC(C)OP(=S)(OC(C)C)SCCNS(=O)(=O)c1ccccc1`, the result in [2], in assay [3], in assay [4], in [5], in assay [6] and in assay [7] was inactive. Moreover, the outcome in assay [8] and in assay [9] was inactive. In addition, the AC50 in assay [9] is active: 90.2 µM and active: 160 µM.
In the case of `ClP(Cl)c1ccccc1`, in assay [1], the compound was called inactive.
Consider `O=[P+](Oc1ccccc1)Oc1ccccc1`, for which, in [1], the AC50 was active: 7.14 µM.
In the case of `CCCCO[P+](=O)OCCCC`, the result in assay [1] was inactive.
As for `CC(C)CCCCCCCOP(OCCCCCCCC(C)C)Oc1ccccc1`, the compound was called inactive in [1].
`Cc1cc([N+](=O)[O-])cc([N+](=O)[O-])c1O`: in assay [1], the call was inactive.
With `O=C1C2CC=CCC2C(=O)N1SC(Cl)(Cl)C(Cl)Cl` (centres undefined), the outcome in assay [2], in assay [3], in [4], in assay [5], in assay [10] and in [6] was inactive. Moreover, the outcome in assay [7], in assay [8] and in assay [9] was inactive.

The values above are taken from PubChem BioAssay (EPA / NIEHS).
